UUG fidelity: modulators of yeast start codon fidelity, primary screen, whole organism, S. cerevisiae, single point, plate reader | AID 602363, 2012 | actives 0.13% (n = 350,000) | activity score, % at 18.7 µM | S. cerevisiae UUG-firefly luciferase reporter, luminescence/redox ratio;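 active means replicate mean at a twofold rise or more, about +100% in these data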;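 further: firefly luciferase made from a UUG start codon reports start codon fidelity; reporter light over untreated wells divided by growth signal over untreated wells; some hits fall short of that in this replicate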
SR-BI uptake up: activators of SR-BI mediated DiI-HDL uptake, primary screen, ldlA[mSR-BI] CHO cells, DiI fluorescence | AID 504775, 2011 | 3 h; 100 = double the neutral-control signal | activation, % at 12.5 µM | actives 0.096% (n = 320,000);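 active means mean replicate activation of at least 60% and every replicate at or above 60%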;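 further: 0% = median plate neutral-control signal and 100% = twice that signal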
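Test system: SR-BI-overexpressing, LDLR-lacking CHO cells. Measured by: DiI fluorescence, bottom read. Medium: Ham's F12 with 0.5% BSA, HEPES 25 mM, pH 7.4. Timing: 3 h uptake period with compound, 37 °C.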
SR-BI HDL uptake: inhibitors of SR-BI mediated HDL lipid uptake, primary screen, ldlA[mSR-BI] cells, fluorescence, single point; ldlA[mSR-BI] CHO cells, DiI-HDL uptake fluorescence, 3 h; inhibition, % at 12.5 µM; actives 0.96% (n = 320,000);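 active means mean replicate inhibition of at least 70% and a set share of replicates each scoring 70 or more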;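 further: 0% = median of neutral control wells and 100% = median of positive control wells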
INS-1E GSIS act: GLuc luminescence reporter in INS-1E cells, primary screen for activators of glucose-dependent secretion of insulin; INS-1E GLuc reporter insulin secretion, 2-3 h; activation, % at 16.6 µM; actives 0.61% (n = 370,000); AID 743287, 2014;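 active means lowest replicate activation of at least 40%, so every replicate reaches that level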;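 further: 0% = median of neutral control wells and 100% = median of IBMX positive control wells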
Numbers without * were called inactive; / = no result given. Rows were chosen to be rich in hits. Some 1.3% of all compounds tested hit in one or more screens of this group.

UUG fidelity | SR-BI uptake up | compound | SR-BI HDL uptake | INS-1E GSIS act
-6.1 | / | COCC#Cc1cnc2c(c1)C(=O)N([C@@H](C)CO)C[C@H](C)[C@H](CN(C)C(=O)c1cnccn1)O2 | / | 23.0
-4.2 | -83.1 | O=C(N/C=N/OCc1ccc(Cl)cc1Cl)NOCc1ncc(C(F)(F)F)cc1Cl | 83.2* | /
/ | / | CCS(=O)(=O)N1CCC2(CC1)CN(Cc1ccccc1)[C@@H](CO)c1c2c2ccc(OC)cc2n1C | / | -0.3
-17.9 | -38.8 | c1ccc(-c2nc(N3CCOCC3)cc(N3CCOCC3)n2)cc1 | 38.8 | /
-7.0 | -84.7 | Cc1cc(C)n(-c2cc(N3CCOCC3)nc(-c3ccccc3)n2)n1 | 84.7* | 6.3
-15.1 | -73.6 | C=CCNC(=S)Nc1sc2c(c1C(=O)OCC)CC(C(C)C)OC2 (stereo unspecified) | 73.6* | /
1.3 | 4.9 | CCOC(=O)c1c(NC(=S)NCCc2ccccc2)sc2c1CC(C(C)C)OC2 (stereo unspecified) | -4.9 | -20.3
/ | / | COc1ccc2c3c(n(C)c2c1)[C@@H](CO)N(Cc1ccc(Cl)cc1)CC31CN(CC2CC2)C1 | / | -26.2
-13.0 | -139.7 | CCN1C(=O)/C(=C/C=C2\C=CN(CC)c3ccccc32)SC1=S | 139.7* | -3.2
-17.0 | -87.2 | CCCN1C(=O)/C(=C\C=C2\N(CC)c3ccccc3C2(C)C)SC1=S | 87.2* | 12.2
/ | 7.1 | CN1/C(=C\C=C2/SC(=S)NC2=O)C(C)(C)c2ccccc21 | -7.1 | 17.6
-13.2 | -89.4 | COc1cc2c(cc1NC(=O)Nc1ccccc1)oc1ccccc12 | 89.4* | /

Reprinted at random: 3 entries already listed
UUG fidelity | SR-BI uptake up | compound | SR-BI HDL uptake | INS-1E GSIS act
/ | / | CCS(=O)(=O)N1CCC2(CC1)CN(Cc1ccccc1)[C@@H](CO)c1c2c2ccc(OC)cc2n1C | / | -0.3
-6.1 | / | COCC#Cc1cnc2c(c1)C(=O)N([C@@H](C)CO)C[C@H](C)[C@H](CN(C)C(=O)c1cnccn1)O2 | / | 23.0
-13.2 | -89.4 | COc1cc2c(cc1NC(=O)Nc1ccccc1)oc1ccccc12 | 89.4* | /

Additional structures.
UUG fidelity | SR-BI uptake up | compound | SR-BI HDL uptake | INS-1E GSIS act
/ | -45.8 | COc1cc2c(cc1NC(=O)C(C)NCc1ccccc1)oc1ccccc12 (stereo unspecified) | 45.8 | -27.8
/ | -71.7 | COc1cc2c(cc1NC(=O)Cc1ccc(C)cc1)oc1ccccc12 | 71.7* | 1.2
/ | -78.9 | COc1cc2c(cc1NC(=O)C(C)Sc1ccc(C)cc1)oc1ccccc12 (stereo unspecified) | 78.9* | 1.6
/ | -45.7 | COc1cc2c(cc1NC(=O)CSc1ccc(C)cc1)oc1ccccc12 | 45.7 | 8.4
23.9 | -85.2 | COc1cc2c(cc1NC(=O)CCCCCN1C(=O)CCC1=O)oc1ccccc12 | 85.2* | -24.1
/ | / | C[C@H]1CN([C@@H](C)CO)C(=O)c2cc(C#CC3(O)CCCC3)cnc2O[C@@H]1CN(C)C(=O)C1CC1 | / | 6.2
/ | -76.3 | CC1(C)Cc2c(c(N3CCCC3)nc3sc(C(=O)Nc4ccccc4)c(N)c23)CO1 | 76.3* | 16.3
-17.3 | -71.2 | COc1ccc(OC)c(NC(=O)c2sc3nc(Cc4ccccc4)cc(C(F)(F)F)c3c2N)c1 | 71.2* | 36.1
-9.7 | / | COc1ccccc1NC(=O)c1sc2nc(N3CCOCC3)c3c(c2c1N)CCCC3 | 84.4* | 9.9
-10.9 | 0.3 | CCOC(=O)c1ccc(NC(=O)c2sc3nc(N4CCOCC4)c4c(c3c2N)CCCC4)cc1 | -0.3 | 12.0
-23.0 | -61.9 | COc1ccc(-c2cc(C(F)(F)F)c3c(N)c(C(=O)NCCSC)sc3n2)cc1 | 61.9 | -7.2
-5.4 | -73.6 | CCOC(=O)c1sc2nc(N3CCOCC3)c3c(c2c1N)CCC3 | 73.6* | /

New compounds follow
UUG fidelity | SR-BI uptake up | compound | SR-BI HDL uptake | INS-1E GSIS act
-2.3 | / | C[C@@H]1CN([C@H](C)CO)C(=O)c2cccc(NS(=O)(=O)c3ccccc3)c2O[C@@H]1CN(C)CC1CCCCC1 | / | -7.4
/ | -76.0 | O=C(Nc1nc2c(cc3c4c(cccc42)CC3)s1)c1ccccc1Cl | 76.0* | 22.9
/ | / | COCCNC(=O)C[C@H]1CC[C@@H]2[C@H](COC[C@@H](O)CN2Cc2cccc(-c3ccncc3)c2)O1 | / | 1.0
-12.6 | 14.2 | Cc1[nH]n(C(N)=S)c(=O)c1N=Nc1cccc([N+](=O)[O-])c1C | -14.2 | /
/ | -89.3 | NC(=S)n1[nH]c(-c2ccc([N+](=O)[O-])cc2)c(N=Nc2ccccc2[N+](=O)[O-])c1=O | 89.3* | -0.8
/ | -87.2 | NC(=S)n1[nH]c(-c2ccc([N+](=O)[O-])cc2)c(N=Nc2cccc([N+](=O)[O-])c2)c1=O | 87.2* | 1.5
/ | -91.7 | Cc1c(N=Nc2c(-c3ccc([N+](=O)[O-])cc3)[nH]n(C(N)=S)c2=O)cccc1[N+](=O)[O-] | 91.8* | 23.5
3.9 | / | Cc1noc(C)c1NC(=O)N(C)C[C@H]1Oc2ncc(/C=C/c3ccccc3)cc2C(=O)N([C@@H](C)CO)C[C@@H]1C | / | 22.2
/ | / | C[C@H]1CN([C@@H](C)CO)C(=O)Cc2cc(NC(=O)Cc3cn(C)c4ccccc34)ccc2O[C@@H]1CN(C)S(=O)(=O)c1ccc(Cl)cc1 | / | -8.0
-22.7 | -95.6 | CCOc1ccc(NC(=O)/C(C#N)=C/c2ccc(N3CCCC3)c(C)c2)cc1 | 95.6* | 115.2*
-6.3 | -88.9 | Clc1ccc(/C=N/c2c(-c3ccc(Cl)cc3)nc3n2CCS3)cc1 | 88.9* | /
/ | 8.6 | CC(=O)N1CCN(C(=S)NCc2ccccc2)CC1 | -8.6 | 57.8*

Structural class, those above with an aryl thioether with sulfur outside any ring.
UUG fidelity | SR-BI uptake up | compound | SR-BI HDL uptake | INS-1E GSIS act
/ | -78.9 | COc1cc2c(cc1NC(=O)C(C)Sc1ccc(C)cc1)oc1ccccc12 (stereo unspecified) | 78.9* | 1.6
/ | -45.7 | COc1cc2c(cc1NC(=O)CSc1ccc(C)cc1)oc1ccccc12 | 45.7 | 8.4

Next part:
UUG fidelity | SR-BI uptake up | compound | SR-BI HDL uptake | INS-1E GSIS act
-6.0 | -78.5 | COc1cc(C(=O)Nc2cccc(NC(=O)c3cccs3)c2)cc(OC)c1OC | 78.5* | -9.8
/ | -73.9 | COc1cc(NC(=O)c2ccc3c(c2)OCCO3)ccc1NC(=O)c1cccs1 | 73.9* | -30.7
/ | / | O=C(Nc1ccc(NC(=O)c2cccs2)cc1)c1ccc2c(c1)OCCO2 | / | 2.4
-19.3 | -11.9 | O=C(Nc1cccc(NC(=O)c2cccs2)c1)c1ccc2c(c1)OCO2 | 11.9 | -8.2
/ | -74.8 | COc1cc(NC(=O)c2cccc(Cl)c2)ccc1NC(=O)c1cccs1 | 74.8* | -9.3
-1.3 | -32.6 | O=C(Nc1ccc(NC(=O)c2cccs2)cc1)c1ccc2c(c1)OCO2 | 32.6 | 47.5*
/ | / | CO[C@H]1CN(C)C(=O)c2ccc(NC(=O)C3CCCC3)cc2OC[C@@H](C)N(S(C)(=O)=O)C[C@@H]1C | / | 9.3
-35.3 | -73.8 | COc1cc(NC(=S)NC(=O)c2c(OC)cccc2OC)ccc1NC(=O)c1cccs1 | 73.8* | /
-16.1 | -82.9 | COc1cc(NC(=S)NC(=O)c2ccccc2F)ccc1NC(=O)c1cccs1 | 82.9* | 10.5
-19.4 | -59.3 | COc1cc(NC(=S)NC(=O)c2ccccc2C)ccc1NC(=O)c1cccs1 | 59.3 | /
-6.0 | / | COc1cc(NC(=O)c2cc3ccccc3cc2OC)ccc1NC(=O)c1cccs1 | 70.8* | 2.5
/ | / | C[C@H]1CN([C@@H](C)CO)C(=O)Cc2cc(NS(C)(=O)=O)ccc2O[C@H]1CN(C)Cc1ccc(-c2ccccc2)cc1 | / | -23.1
-6.3 | -73.6 | CCOc1cc(C(=O)N2CCC(CC3CC(c4cccc(Br)c4)=NO3)(C(=O)NCC3CCCCC3)CC2)cc(OCC)c1OCC (stereo unspecified) | 73.6* | -8.1
18.5 | / | C[C@@H]1CCCCO[C@@H](CN(C)CC2CC2)[C@H](C)CN([C@H](C)CO)C(=O)c2cc(NC(=O)Nc3cccc4ccccc34)ccc2O1 | / | -11.7
-8.8 | / | COC(=O)C[C@H]1C[C@H]2c3cc(NS(=O)(=O)c4cccc(OC)c4)ccc3O[C@H]2[C@H](CO)O1 | / | 6.2
